Reference: US20030092603A1, “Identification of specific modulators of bone formation” (priority 2001, published 2003)

Key:
[1] = system: neonatal murine calvarial bones; experiment: Organ culture of neonatal murine calvarial bones, bone formation; type: cell-based, ICR Swiss mice; conditions: 72 hours culture
Procedure: Organ cultures of neonatal murine calvarial bones were used as described by Traianedes, K., et al., Endocrinology (1998) 139:3178-3184. Bones were removed from the calvaria of 4-5 day old ICR Swiss mice and cultured in BGJ medium with 0.1% BSA for 72 hours together with test compounds. Mouse noggin/FC chimera was purchased from R&D Systems, Stillwater, Minn., and added at 2 μg/ml. This is a high affinity binding protein for BMP-2, BMP-4 and BMP-7.
Neonatal murine calvariae were transfected with either empty vector or truncated Gli3 (trGli3) using lipofectamine plus reagents for the first 24 hours and then treated with epoxomicin (20 nM) for the remaining 3 days of the assay according to Traianedes, et al., 1998 (supra).

C2C12 cells [2] = experiment: Alkaline phosphatase (ALP) activity in C2C12 cells; type: cell-based; conditions: BMP-2 100 ng/ml, 24 hours, FIG. 4a
Procedure: (§1) C2C12 cells were plated in 24-well culture plates at density of 2×10^4 cells/well and incubated with DMEM supplemented with 10% FCS. 24 h later, C2C12 cells were transfected with empty vector, Smad1 or mutant Smurf1 expression plasmid using lipofactamine plus reagents (Gibco/BRL). Recombinant human BMP-2 (100 ng/ml) (R & D) was added next day and the cells were incubated for additional 24 hours. At the end of incubation, the medium was collected for osteocalcin assay and the cell lysates were extracted using 200 μl 0.05% Triton X-100 (freeze-thaw 3 times) and the ALP activity was measured using a Sigma ALP assay kit (Sigma Chemical co., St Louis) and protein content was measured using Bio-Rad protein assay reagents. The ALP activity was calculated using these two parameters.

C2C12 cells [3] = experiment: Osteocalcin production in C2C12 cells; type: cell-based; conditions: BMP-2 100 ng/ml, 24 hours, FIG. 4b
Procedure: as §1

B1: BMP-2: bone morphogenic protein; Recombinant human BMP-2 (R & D) in Example 5 (protein, UniProt P12643 283-396, looked up)
Bone morphogenetic protein 2: QAKHKQRKRLKSSCKRHPLYVDFSDVGWNDWIVAPPGYHAFYCHGECPFPLADHLNSTNHAIVQTLVNSVNSKIPKACCVPTELSAISMLYLDENEKVVLKNYQDMVVEGCGCR
With B1 the “bone formation in calvarial cultures” value [1] was “bone stimulating effect”, the ALP activity (C2C12 cells [2]) was “increased” and the osteocalcin production (C2C12 cells [3]) was “increased”.
